Test: Study 1A: repetitive weekly intravenous toxicity study in rats
Conditions: 45 mg/kg high dose toxicology group

Q: Which mortality does the source give for `CC1(C)CCC2=C(O1)c1ccccc1C(=O)C2=O` [β-lapachone, 3,4-dihydro-2,2-dimethyl-2H-naphtho [1,2-b]pyran-5,6-dione] here?
A: The mortality was “One animal in the 45 mg/kg toxicology high dose group was found dead on Day 3”.

Source: patent publication US20050187288A1, “Beta-lapachone and methods of treating cancer” (priority 2004, published 2005)
